Test results taken from paper PMC4128571 (Drug testing and analysis, 2014).

Chains of the proteins cited; added tags and fusions are not shown.
UniProt P31652, whole entry: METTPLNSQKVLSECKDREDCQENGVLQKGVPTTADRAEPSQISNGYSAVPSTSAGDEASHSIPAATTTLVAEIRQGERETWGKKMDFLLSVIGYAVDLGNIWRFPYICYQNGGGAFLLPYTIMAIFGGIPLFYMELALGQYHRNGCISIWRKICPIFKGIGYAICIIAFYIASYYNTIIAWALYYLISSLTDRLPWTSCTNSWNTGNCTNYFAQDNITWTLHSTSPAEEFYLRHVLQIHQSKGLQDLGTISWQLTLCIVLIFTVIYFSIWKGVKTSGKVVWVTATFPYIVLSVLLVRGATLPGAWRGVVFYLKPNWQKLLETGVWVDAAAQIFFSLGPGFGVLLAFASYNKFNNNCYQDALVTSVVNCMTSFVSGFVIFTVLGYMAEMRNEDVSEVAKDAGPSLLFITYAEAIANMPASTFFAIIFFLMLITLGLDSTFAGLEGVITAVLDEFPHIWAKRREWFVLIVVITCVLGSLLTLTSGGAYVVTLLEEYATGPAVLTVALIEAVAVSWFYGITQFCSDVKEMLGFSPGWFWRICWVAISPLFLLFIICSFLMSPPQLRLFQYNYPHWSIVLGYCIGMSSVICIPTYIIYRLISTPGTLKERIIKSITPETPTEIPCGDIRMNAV
UniProt P23977, whole entry: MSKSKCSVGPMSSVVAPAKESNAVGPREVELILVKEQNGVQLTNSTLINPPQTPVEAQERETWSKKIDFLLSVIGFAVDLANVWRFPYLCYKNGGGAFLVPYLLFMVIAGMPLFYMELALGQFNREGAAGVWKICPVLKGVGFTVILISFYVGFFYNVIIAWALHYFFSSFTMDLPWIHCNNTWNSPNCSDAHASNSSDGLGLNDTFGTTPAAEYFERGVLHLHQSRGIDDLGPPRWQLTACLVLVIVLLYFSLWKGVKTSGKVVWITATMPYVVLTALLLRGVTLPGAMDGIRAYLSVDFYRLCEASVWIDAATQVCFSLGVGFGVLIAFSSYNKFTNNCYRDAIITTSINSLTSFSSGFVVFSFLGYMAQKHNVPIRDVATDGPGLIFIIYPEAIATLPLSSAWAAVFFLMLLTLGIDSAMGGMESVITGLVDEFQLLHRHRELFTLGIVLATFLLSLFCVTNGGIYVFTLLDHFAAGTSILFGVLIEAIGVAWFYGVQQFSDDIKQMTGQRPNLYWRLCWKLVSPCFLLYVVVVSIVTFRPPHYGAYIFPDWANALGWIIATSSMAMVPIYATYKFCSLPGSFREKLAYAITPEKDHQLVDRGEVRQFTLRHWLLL

Columns and labels:
5-HT transporters (SERT) = 5-HT transporters (SERT) (Rattus norvegicus, UniProt P31652); type: biochemical; settings: rat brain synaptosomes
[1] = target: dopamine transporters (DAT) (Rattus norvegicus, UniProt P23977); type: biochemical; settings: rat brain synaptosomes

C[C@H](N)Cc1ccccc1 [d-Amphetamine]
Efficacy to evoke release at SERT (of maximal release) (5-HT transporters (SERT)): fully efficacious | Efficacy to evoke release at DAT (of maximal release) [1]: fully efficacious
